What was measured:
Homo sapiens [1] = species: Homo sapiens; assay: Selectivity index, ratio of IC50 for inhibition of c-Kit (unknown origin) to IC50 for inhibition of c-Met (unknown origin)
Homo sapiens [2] = species: Homo sapiens; assay: Selectivity index, ratio of IC50 for inhibition of PDGFRalpha (unknown origin) to IC50 for inhibition of c-Met (unknown origin)
Homo sapiens [3] = species: Homo sapiens; assay: Selectivity index, ratio of IC50 for inhibition of VEGFR (unknown origin) to IC50 for inhibition of c-Met (unknown origin)
Homo sapiens [4] = species: Homo sapiens; assay: Selectivity index, ratio of IC50 for inhibition of FLT1 (unknown origin) to IC50 for inhibition of c-Met (unknown origin)
Homo sapiens [5] = species: Homo sapiens; assay: Selectivity index, ratio of IC50 for inhibition of PDGFRbeta (unknown origin) to IC50 for inhibition of c-Met (unknown origin)
Homo sapiens [6] = species: Homo sapiens; assay: Selectivity index, ratio of IC50 for inhibition of RON (unknown origin) to IC50 for inhibition of c-Met (unknown origin)
Homo sapiens [7] = species: Homo sapiens; assay: Selectivity index, ratio of IC50 for inhibition of FLT3 (unknown origin) to IC50 for inhibition of c-Met (unknown origin)

Measured: Ratio IC50

COc1cc2c(Oc3ccc(NC(=O)NS(=O)(=O)Cc4ccc(F)cc4)cc3F)ccnc2cc1OCCCN1CCCC1
122 to 347: all assays above
